{
  "source": "paper PMC12207880",
  "about": "(The Oncologist, 2025)",
  "tested_on": "patients with advanced solid tumors",
  "note": "Where two headings read alike, the source gives them in different places.",
  "data": [
    {"compound": "Cc1nc2c(F)cc(-c3nc(Nc4ccc5c(n4)CCN(CCN(C)C)C5)ncc3F)cc2n1C1CC1", "values": [
      {"measurement": "Electrocardiogram QT prolonged, Grade ≥3", "setting": "600 mg QD, N = 7", "value": "0 n (%)"},
      {"measurement": "Fatigue, Grade All", "setting": "600 mg QD, N = 7", "value": "2 (28.6) n (%)"},
      {"measurement": "Fatigue, Grade ≥3", "setting": "600 mg QD, N = 7", "value": "0 n (%)"},
      {"measurement": "Haematuria, Grade All", "setting": "600 mg QD, N = 7", "value": "0 n (%)"},
      {"measurement": "Haematuria, Grade ≥ 3", "setting": "600 mg QD, N = 7", "value": "0 n (%)"},
      {"measurement": "Hypoalbuminemia, Grade All", "setting": "600 mg QD, N = 7", "value": "1 (14.3) n (%)"},
      {"measurement": "Hypoalbuminemia, Grade ≥3", "setting": "600 mg QD, N = 7", "value": "0 n (%)"},
      {"measurement": "Hypokalaemia, Grade All", "setting": "600 mg QD, N = 7", "value": "3 (42.9) n (%)"},
      {"measurement": "Hypokalaemia, Grade ≥3", "setting": "600 mg QD, N = 7", "value": "0 n (%)"},
      {"measurement": "Hyponatraemia, Grade All", "setting": "600 mg QD, N = 7", "value": "2 (28.6) n (%)"},
      {"measurement": "Hyponatraemia, Grade ≥3", "setting": "600 mg QD, N = 7", "value": "0 n (%)"},
      {"measurement": "Leucocyte count decreased, Grade All", "setting": "600 mg QD, N = 7", "value": "6 (85.7) n (%)"},
      {"measurement": "Leucocyte count decreased, Grade ≥3", "setting": "600 mg QD, N = 7", "value": "2 (28.6) n (%)"},
      {"measurement": "Lymphocyte count decreased, Grade All", "setting": "600 mg QD, N = 7", "value": "2 (28.6) n (%)"},
      {"measurement": "Lymphocyte count decreased, Grade ≥3", "setting": "600 mg QD, N = 7", "value": "1 (14.3) n (%)"},
      {"measurement": "Nausea, Grade All", "setting": "600 mg QD, N = 7", "value": "3 (42.9) n (%)"},
      {"measurement": "Nausea, Grade ≥3", "setting": "600 mg QD, N = 7", "value": "0 n (%)"},
      {"measurement": "Neutrophil count decreased, Grade All", "setting": "600 mg QD, N = 7", "value": "6 (85.7) n (%)"},
      {"measurement": "Neutrophil count decreased, Grade ≥3", "setting": "600 mg QD, N = 7", "value": "1 (14.3) n (%)"},
      {"measurement": "Platelet count decreased, Grade All", "setting": "600 mg QD, N = 7", "value": "0 n (%)"},
      {"measurement": "Platelet count decreased, Grade ≥3", "setting": "600 mg QD, N = 7", "value": "0 n (%)"},
      {"measurement": "Rash, Grade All", "setting": "600 mg QD, N = 7", "value": "1 (14.3) n (%)"},
      {"measurement": "Rash, Grade ≥3", "setting": "600 mg QD, N = 7", "value": "0 n (%)"},
      {"measurement": "Vomiting, Grade All", "setting": "600 mg QD, N = 7", "value": "6 (85.7) n (%)"},
      {"measurement": "Vomiting, Grade ≥3", "setting": "600 mg QD, N = 7", "value": "0 n (%)"},
      {"measurement": "γ-glutamyl transpeptidase increased, Grade All", "setting": "600 mg QD, N = 7", "value": "2 (28.6) n (%)"},
      {"measurement": "γ-glutamyl transpeptidase increased, Grade ≥3", "setting": "600 mg QD, N = 7", "value": "1 (14.3) n (%)"},
      {"measurement": "patients with SAE related to the study treatment (grade 3 increased GGT)", "setting": "600-mg cohort", "value": 1, "unit": "patients"},
      {"measurement": "Abdominal pain, Grade All", "setting": "All, N = 29", "value": "9 (31.0) n (%)"},
      {"measurement": "Abdominal pain, Grade ≥3", "setting": "All, N = 29", "value": "0 n (%)"},
      {"measurement": "Alanine aminotransferase increased, Grade All", "setting": "All, N = 29", "value": "4 (13.8) n (%)"},
      {"measurement": "Alanine aminotransferase increased, Grade ≥3", "setting": "All, N = 29", "value": "1 (3.4) n (%)"},
      {"measurement": "Alkaline phosphatase increased, Grade All", "setting": "All, N = 29", "value": "4 (13.8) n (%)"},
      {"measurement": "Alkaline phosphatase increased, Grade ≥3", "setting": "All, N = 29", "value": "0 n (%)"},
      {"measurement": "All TRAEs, Grade All", "setting": "All, N = 29", "value": "29 (100) n (%)"},
      {"measurement": "All TRAEs, Grade ≥3", "setting": "All, N = 29", "value": "15 (51.7) n (%)"},
      {"measurement": "Anaemia, Grade All", "setting": "All, N = 29", "value": "19 (65.5) n (%)"},
      {"measurement": "Anaemia, Grade ≥3", "setting": "All, N = 29", "value": "1 (3.4) n (%)"},
      {"measurement": "Appetite decreased, Grade All", "setting": "All, N = 29", "value": "4 (13.8) n (%)"},
      {"measurement": "Appetite decreased, Grade ≥3", "setting": "All, N = 29", "value": "0 n (%)"},
      {"measurement": "Aspartate aminotransferase increased, Grade All", "setting": "All, N = 29", "value": "6 (20.7) n (%)"},
      {"measurement": "Aspartate aminotransferase increased, Grade ≥3", "setting": "All, N = 29", "value": "0 n (%)"},
      {"measurement": "Blood creatinine increased, Grade All", "setting": "All, N = 29", "value": "3 (10.3) n (%)"},
      {"measurement": "Blood creatinine increased, Grade ≥3", "setting": "All, N = 29", "value": "0 n (%)"},
      {"measurement": "Blood lactic dehydrogenase increased, Grade All", "setting": "All, N = 29", "value": "3 (10.3) n (%)"},
      {"measurement": "Blood lactic dehydrogenase increased, Grade ≥3", "setting": "All, N = 29", "value": "0 n (%)"},
      {"measurement": "Diarrhoea, Grade All", "setting": "All, N = 29", "value": "20 (69.0) n (%)"},
      {"measurement": "Diarrhoea, Grade ≥3", "setting": "All, N = 29", "value": "2 (6.9) n (%)"},
      {"measurement": "Dizziness, Grade All", "setting": "All, N = 29", "value": "4 (13.8) n (%)"},
      {"measurement": "Dizziness, Grade ≥3", "setting": "All, N = 29", "value": "0 n (%)"},
      {"measurement": "Electrocardiogram QT prolonged, Grade All", "setting": "All, N = 29", "value": "3 (10.3) n (%)"},
      {"measurement": "Electrocardiogram QT prolonged, Grade ≥3", "setting": "All, N = 29", "value": "0 n (%)"},
      {"measurement": "Fatigue, Grade All", "setting": "All, N = 29", "value": "5 (17.2) n (%)"},
      {"measurement": "Fatigue, Grade ≥3", "setting": "All, N = 29", "value": "2 (6.9) n (%)"},
      {"measurement": "Haematuria, Grade All", "setting": "All, N = 29", "value": "3 (10.3) n (%)"},
      {"measurement": "Haematuria, Grade ≥ 3", "setting": "All, N = 29", "value": "0 n (%)"},
      {"measurement": "Hypoalbuminemia, Grade All", "setting": "All, N = 29", "value": "4 (13.8) n (%)"},
      {"measurement": "Hypoalbuminemia, Grade ≥3", "setting": "All, N = 29", "value": "0 n (%)"},
      {"measurement": "Hypokalaemia, Grade All", "setting": "All, N = 29", "value": "7 (24.1) n (%)"},
      {"measurement": "Hypokalaemia, Grade ≥3", "setting": "All, N = 29", "value": "2 (6.9) n (%)"},
      {"measurement": "Hyponatraemia, Grade All", "setting": "All, N = 29", "value": "4 (13.8) n (%)"},
      {"measurement": "Hyponatraemia, Grade ≥3", "setting": "All, N = 29", "value": "0 n (%)"},
      {"measurement": "Leucocyte count decreased, Grade All", "setting": "All, N = 29", "value": "21 (72.4) n (%)"},
      {"measurement": "Leucocyte count decreased, Grade ≥3", "setting": "All, N = 29", "value": "4 (13.8) n (%)"},
      {"measurement": "Lymphocyte count decreased, Grade All", "setting": "All, N = 29", "value": "12 (41.4) n (%)"},
      {"measurement": "Lymphocyte count decreased, Grade ≥3", "setting": "All, N = 29", "value": "4 (13.8) n (%)"},
      {"measurement": "Nausea, Grade All", "setting": "All, N = 29", "value": "9 (31.0) n (%)"},
      {"measurement": "Nausea, Grade ≥3", "setting": "All, N = 29", "value": "1 (3.4) n (%)"},
      {"measurement": "Neutrophil count decreased, Grade All", "setting": "All, N = 29", "value": "20 (69.0) n (%)"},
      {"measurement": "Neutrophil count decreased, Grade ≥3", "setting": "All, N = 29", "value": "3 (10.3) n (%)"},
      {"measurement": "Platelet count decreased, Grade All", "setting": "All, N = 29", "value": "7 (24.1) n (%)"},
      {"measurement": "Platelet count decreased, Grade ≥3", "setting": "All, N = 29", "value": "0 n (%)"},
      {"measurement": "Rash, Grade All", "setting": "All, N = 29", "value": "3 (10.3) n (%)"},
      {"measurement": "Rash, Grade ≥3", "setting": "All, N = 29", "value": "0 n (%)"},
      {"measurement": "Vomiting, Grade All", "setting": "All, N = 29", "value": "12 (41.4) n (%)"},
      {"measurement": "Vomiting, Grade ≥3", "setting": "All, N = 29", "value": "0 n (%)"},
      {"measurement": "γ-glutamyl transpeptidase increased, Grade All", "setting": "All, N = 29", "value": "7 (24.1) n (%)"},
      {"measurement": "γ-glutamyl transpeptidase increased, Grade ≥3", "setting": "All, N = 29", "value": "2 (6.9) n (%)"},
      {"measurement": "grade ≥3 TRAE decreased neutrophil count", "setting": "all patients (n = 29), n = 3", "value": 10.3, "unit": "%"},
      {"measurement": "grade ≥3 TRAE decreased leucocyte count", "setting": "all patients (n = 29), n = 4", "value": 13.8, "unit": "%"},
      {"measurement": "grade ≥3 TRAE decreased lymphocyte count", "setting": "all patients (n = 29), n = 4", "value": 13.8, "unit": "%"},
      {"measurement": "TRAE abdominal pain", "setting": "all patients (n = 29), n = 9", "value": 31.0, "unit": "%"},
      {"measurement": "TRAE nausea", "setting": "all patients (n = 29), n = 9", "value": 31.0, "unit": "%"},
      {"measurement": "TRAE vomiting", "setting": "all patients (n = 29), n = 12", "value": 41.4, "unit": "%"},
      {"measurement": "TRAE anemia", "setting": "all patients (n = 29), n = 19", "value": 65.5, "unit": "%"},
      {"measurement": "TRAE decreased neutrophil count", "setting": "all patients (n = 29), n = 20", "value": 69.0, "unit": "%"},
      {"measurement": "TRAE diarrhea", "setting": "all patients (n = 29), n = 20", "value": 69.0, "unit": "%"},
      {"measurement": "TRAE decreased leucocyte count", "setting": "all patients (n = 29), n = 21", "value": 72.4, "unit": "%"},
      {"measurement": "patients with grade ≥3 TRAEs", "setting": "all patients, 15/29", "value": 51.7, "unit": "%"},
      {"measurement": "tolerability and safety (conclusion in words)", "setting": "dose range from 50 to 600 mg QD", "value": "well tolerated and safe"},
      {"measurement": "Death due to disease progression", "setting": "n = 1, 200-mg cohort, considered unrelated to SPH4336", "value": 3.4, "unit": "%"}
    ]}
  ]
}
